Here are results for one compound from patent publication EP0427405A1 (priority 1989, dated 1991).

The test system of assay [1] is Phaffia rhodozyma ENZA-M106. As to the kind of experiment: NTG mutagenesis, survival rate. The note with it: 9 ml cells added to 1 ml of 2 mg/ml NTG, 15 minutes, room temperature.
In assay [2] the test system is Phaffia rhodozyma ENZA-M10. As to the kind of experiment: kill curves with mutagens (viable cell count against exposure). Format: cell-based. To be noted: strain E1.
The subject of assay [3] is Phaffia rhodozyma ENZA-A169. Described as above. Format: cell-based.

`CN(N=O)C(=N)N[N+](=O)[O-]`: the survival rate in assay [1] was 3.1%. In addition, in assay [2], the “kill curve, shape” value is on record as “definite "bump"”. Moreover, the “kill curve, kinetics of death” value in assay [3] (strain E3) was “follows 1st order kinetics”. Besides, the “kill curve, speed of killing” value in assay [3] (strain E3, compared with E1) is on record as “killed much more quickly than E1”.
